The numbers were not newly measured in patent publication US20080286202A1, “Method of Diagnosing Prodromal Forms of Diseases Associated With Amyloid Deposition” (priority 2004, published 2008), which cites them from elsewhere.

The conditions of the data set: literature values of neuroreceptor-binding radiotracers.

Take `CO[C@]12CC[C@@]3(C[C@@H]1C(C)(C)O)[C@H]1Cc4ccc(O)c5c4[C@@]3(CCN1CC1CC1)[C@H]2O5`: the “f1 (free level in plasma)” value is on record as 0.30.
